Columns and labels:
[1] = tested on: WT and CIS−/− BM common myeloid progenitor cells; assay: Generation of common myeloid progenitors from BM cells in IL-3; format: cell-based, mouse; conditions: IL-3 for 3 d, n = 3 mice
[2] = tested on: common myeloid progenitors; conditions: ref Burnham et al., 2013; Matsumoto et al., 1997; Yoshimura et al., 1995; cited from earlier work

B1: IL-3: cytokine signaling through the common β chain (protein, UniProt P08700 20-152, looked up)
Interleukin-3: APMTQTTPLKTSWVNCSNMIDEIITHLKQPPLPLLDFNNLNGEDQDILMENNLRRPNLEAFNRAVKSLQNASAIESILKNLLPCLPLATAAPTRHPIHIKDGDWNEFRRKLTFYLKTLENAQAQQTTLSLAIF
common myeloid progenitor numbers [1]: greater numbers
Cish expression in common myeloid progenitors [2]: can induce Cish expression

Reference: paper PMC7201918 (The Journal of Experimental Medicine, 2020)
